The source of these data is patent publication US20250214977A1, “STAT6 INHIBITORS AND USES THEREOF” (Kymera Therapeutics, Inc., priority 2024, published 2025).

The chains behind the UniProt entries cited, without tags or fusion partners. Residues count along the entry.
UniProt P42226, 123-632 limits assumed: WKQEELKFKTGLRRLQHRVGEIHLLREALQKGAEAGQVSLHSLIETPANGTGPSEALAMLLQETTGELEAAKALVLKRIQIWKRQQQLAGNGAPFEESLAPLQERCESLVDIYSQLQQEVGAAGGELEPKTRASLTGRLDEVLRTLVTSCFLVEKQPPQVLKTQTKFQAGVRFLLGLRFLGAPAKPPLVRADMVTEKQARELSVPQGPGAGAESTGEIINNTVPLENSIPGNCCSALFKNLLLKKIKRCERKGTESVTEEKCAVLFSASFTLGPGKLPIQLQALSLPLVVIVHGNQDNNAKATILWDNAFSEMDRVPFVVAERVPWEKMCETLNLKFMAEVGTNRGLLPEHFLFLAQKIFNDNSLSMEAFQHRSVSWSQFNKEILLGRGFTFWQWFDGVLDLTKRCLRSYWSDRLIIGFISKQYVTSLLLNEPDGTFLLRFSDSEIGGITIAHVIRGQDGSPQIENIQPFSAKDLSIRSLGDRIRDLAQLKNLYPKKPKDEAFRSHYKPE

The test deals with biotinylated truncated STAT6 (123-632)-avi (Homo sapiens, UniProt P42226). Description: Homogenous Time-Resolved Fluorescence (HTRF) binding assay. The settings on record: read-out: STAT6 HTRF: Average IC50; 0.15 nM biotinylated truncated STAT6 (123-632)-avi, 20 nM fluorescein-labeled probe, 30 minutes room temperature. How it is done: Example 1. Homogenous Time-Resolved Fluorescence (HTRF) Binding Assay
HTRF binding assays were performed using 0.15 nM biotinylated truncated STAT6 (123-632)-avi purified from E. coli, 1× Streptavidin-terbium (CisBio) prepared by mixing SA-Tb in PPI detection buffer (CisBio), 20 nM proprietary fluorescein-labeled probe, and test compounds in assay buffer consisting of 50 mM HEPES-Na pH 7.5, 100 mM NaCl, 1 mM EDTA, 2 mM DTT, 0.1% Tween-20 with a final volume of 20 uL. Compound stocks were dissolved at 10 mM in 100% DMSO and 11 point titration with 3 fold serial dilution was performed in white, opaque 384 well microplates. Reaction plates were incubated at room temperature for 30 minutes. Plates were centrifuged at low rpm for 5 mins, and the ratio of fluorescence intensities were measured at emission wavelengths for fluorescein acceptor (520 nm) and terbium donor (495 nm) on Envision Plate reader. % Inhibition was calculated from the 520/495 ratio generated by using proprietary positive control compound for 100% inhibition and DMSO only reactions for 0% inhibition. Data was processed and dose response curves were generated using GraphPad Prism to determine the concentration required for inhibiting 50% of the HTRF signal (IC50).

As a reminder, the IC50 is the midpoint of a concentration-inhibition curve. Regarding `CCc1nc(C)ccc1-c1cc(C(=O)N2Cc3cnn(C)c3C2)cc2c(F)c(C3CCCN(C(=O)CCc4nccs4)C3)n(CC3CC3)c12` (single isomer, unassigned), the half-inhibitory concentration (IC50) was 1 to 10 µM.

With `CCc1nc(C)ccc1-c1cc(C(=O)N2CCN(C3CC3)CC2)cc2c(F)c(C3CCCN(C(=O)CCn4ccnn4)C3)n(CC3CC3)c12` (single isomer, unassigned), the IC50 fell in the range of 1 to 10 µM.
